In PubChem BioAssay AID602250 (The Scripps Research Institute Molecular Screening Center, 2012):
The entries are a selection whose mix differs from that of the whole data set. Some results for these compounds are left out of this collection, so the calls shown say nothing about other tests. Active and inactive are the calls of the source.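 Rule for the calls: active = inhibition above a per-plate cutoff, the plate's mean sample inhibition plus 3 SD (cut at about 24% in these data); inactive = the rest.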

Test: nonselective inhibitors of ATP calcium response in CHO-K1, primary screen, counter-screen for M1 antagonist project, cell-based, Fluo-8 calcium fluorescence, full deck, 1536-well (AID 602250);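 note: 0% = DMSO plus EC80 ATP and 100% = DMSO alone without ATP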
Conditions: CHO-K1 parental, ATP-induced calcium, Fluo-8 fluorescence; at 3 µM; hits give high values

**Q.** With COc1cccc(C(=O)NCC2(N3CCCCC3)CCCCC2)c1 as the compound, how does the inhibition read?
**A.** Its inhibition is inactive: -13%.

**Q.** For COc1ccc(Cl)cc1C(=O)NCC1(N(C)C)CCCCC1, which inhibition is on record?
**A.** Its inhibition is inactive: -5.88%.

**Q.** With O=C(NCC1(N2CCCCC2)CCCCC1)c1cccc(Cl)c1 as the compound, how does the inhibition read?
**A.** Its inhibition is inactive: -18.7%.

**Q.** For CN(C)C1(CNC(=O)c2ccc(Br)cc2)CCCCC1, which inhibition is on record?
**A.** Its inhibition is inactive: -3.79%.

**Q.** Which inhibition does the source give for COc1cc(C(=O)NCC2(N(C)C)CCCCC2)c([N+](=O)[O-])cc1OC here?
**A.** The inhibition was inactive: -19%.

**Q.** For COc1ccc(Br)c(C(=O)NCC2(N3CCCCC3)CCCCC2)c1, which inhibition is on record?
**A.** The inhibition was inactive: -14.7%.

**Q.** With C=C(C)C#CC(O)(C(=O)OC1CCN(C)CC1)c1ccccc1 (stereo unspecified) as the compound, how does the inhibition read?
**A.** The inhibition was inactive: -1.24%.

**Q.** Which inhibition does the source give for CN(C)c1cccc(C(=O)NCC2(N(C)C)CCCCC2)c1 here?
**A.** The inhibition was inactive: -9.23%.

**Q.** With CC(C)Oc1ccc(C(=O)NCC2(N(C)C)CCCCC2)cc1 as the compound, how does the inhibition read?
**A.** The inhibition was inactive: -2.76%.

**Q.** For O=C(OCCN1CCCC1)C(O)(c1ccccc1)c1ccccc1, which inhibition is on record?
**A.** The inhibition was inactive: -6.59%.

**Q.** Which inhibition does the source give for O=C(OC1CN2CCC1CC2)C(CO)(c1ccccc1)c1ccccc1 (stereo unspecified) here?
**A.** Its inhibition is inactive: 2.74%.

**Q.** Which inhibition does the source give for CC(C)N1C(=O)CC2(CCN(CCOC(=O)C(O)(c3ccccc3)c3ccccc3)CC2)C1=O here?
**A.** Its inhibition is inactive: -11.7%.

**Q.** For CCN(CC)CC(C)C(C)OC(=O)C(O)(c1ccccc1)c1ccccc1 (stereo unspecified), which inhibition is on record?
**A.** Its inhibition is inactive: -13.8%.

**Q.** Which inhibition does the source give for COc1cc(SC)ccc1C(=O)NCC1(N(C)C)CCCCC1 here?
**A.** The inhibition was inactive: -4.03%.

**Q.** For Cc1ccc(C(=O)NCC2(N3CCCCC3)CCCCC2)cc1, which inhibition is on record?
**A.** The inhibition was inactive: -17.3%.

**Q.** With O=C(NCC1(N2CCCCC2)CCCCC1)c1cc([N+](=O)[O-])ccc1Cl as the compound, how does the inhibition read?
**A.** The inhibition was inactive: -10%.

**Q.** For CN1[C@@H]2CC[C@H]1CC(OC(=O)C(O)(c1ccccc1)c1ccccc1)C2 (stereo partly specified), which inhibition is on record?
**A.** The inhibition was inactive: -11.1%.

**Q.** Which inhibition does the source give for C=CCN1CCN(CCOC(=O)C(O)(c2ccccc2)c2ccccc2)CC1 here?
**A.** Its inhibition is inactive: -15.5%.

**Q.** Which inhibition does the source give for O=C(NCC1(N2CCCCC2)CCCCC1)c1cc(F)c(F)cc1Cl here?
**A.** The inhibition was inactive: -1.46%.

**Q.** With CCN1CCCC(OC(=O)C2(O)c3ccccc3C=Cc3ccccc32)C1 (stereo unspecified) as the compound, how does the inhibition read?
**A.** Its inhibition is inactive: -0.52%.

**Q.** For Cc1cc(C(=O)NCC2(N3CCCCC3)CCCCC2)ccc1[N+](=O)[O-], which inhibition is on record?
**A.** The inhibition was inactive: 0.01%.

**Q.** Which inhibition does the source give for O=C(NCC1(N2CCCCC2)CCCCC1)c1cccc(Br)c1 here?
**A.** Its inhibition is inactive: -13.5%.

**Q.** With COc1ccc(C(=O)NCC2(N(C)C)CCCCC2)cc1 as the compound, how does the inhibition read?
**A.** The inhibition was inactive: 0.53%.

**Q.** With Cc1ccccc1C(=O)NCC1(N2CCCCC2)CCCCC1 as the compound, how does the inhibition read?
**A.** Its inhibition is inactive: -13.5%.

**Q.** With CN(C)c1ccc(C(=O)NCC2(N(C)C)CCCCC2)cc1 as the compound, how does the inhibition read?
**A.** The inhibition was inactive: 3.87%.

**Q.** Which inhibition does the source give for CN(C)C1CCCC1OC(=O)C(O)(c1ccccc1)c1ccccc1 (stereo unspecified) here?
**A.** Its inhibition is inactive: 7.58%.
